Measured values: IntAct's records for PubMed 23435564

B1: DNA polymerase III subunit alpha (Escherichia coli (strain K12)), P10443 (parent)
chain: MSEPRFVHLRVHSDYSMIDGLAKTAPLVKKAAALGMPALAITDFTNLCGLVKFYGAGHGAGIKPIVGADFNVQCDLLGDELTHLTVLAANNTGYQNLTLLISKAYQRGYGAAGPIIDRDWLIELNEGLILLSGGRMGDVGRSLLRGNSALVDECVAFYEEHFPDRYFLELIRTGRPDEESYLHAAVELAEARGLPVVATNDVRFIDSSDFDAHEIRVAIHDGFTLDDPKRPRNYSPQQYMRSEEEMCELFADIPEALANTVEIAKRCNVTVRLGEYFLPQFPTGDMSTEDYLVKRAKEGLEERLAFLFPDEEERLKRRPEYDERLETELQVINQMGFPGYFLIVMEFIQWSKDNGVPVGPGRGSGAGSLVAYALKITDLDPLEFDLLFERFLNPERVSMPDFDVDFCMEKRDQVIEHVADMYGRDAVSQIITFGTMAAKAVIRDVGRVLGHPYGFVDRISKLIPPDPGMTLAKAFEAEPQLPEIYEADEEVKALIDMARKLEGVTRNAGKHAGGVVIAPTKITDFAPLYCDEEGKHPVTQFDKSDVEYAGLVKFDFLGLRTLTIINWALEMINKRRAKNGEPPLDIAAIPLDDKKSFDMLQRSETTAVFQLESRGMKDLIKRLQPDCFEDMIALVALFRPGPLQSGMVDNFIDRKHGREEISYPDVQWQHESLKPVLEPTYGIILYQEQVMQIAQVLSGYTLGGADMLRRAMGKKKPEEMAKQRSVFAEGAEKNGINAELAMKIFDLVEKFAGYGFNKSHSAAYALVSYQTLWLKAHYPAEFMAAVMTADMDNTEKVVGLVDECWRMGLKILPPDINSGLYHFHVNDDGEIVYGIGAIKGVGEGPIEAIIEARNKGGYFRELFDLCARTDTKKLNRRVLEKLIMSGAFDRLGPHRAALMNSLGDALKAADQHAKAEAIGQADMFGVLAEEPEQIEQSYASCQPWPEQVVLDGERETLGLYLTGHPINQYLKEIERYVGGVRLKDMHPTERGKVITAAGLVVAARVMVTKRGNRIGICTLDDRSGRLEVMLFTDALDKYQQLLEKDRILIVSGQVSFDDFSGGLKMTAREVMDIDEAREKYARGLAISLTDRQIDDQLLNRLRQSLEPHRSGTIPVHLYYQRADARARLRFGATWRVSPSDRLLNDLRGLIGSEQVELEFD
B2: DNA polymerase III subunit epsilon (Escherichia coli (strain K12)), P03007 (parent)
chain: MSTAITRQIVLDTETTGMNQIGAHYEGHKIIEIGAVEVVNRRLTGNNFHVYLKPDRLVDPEAFGVHGIADEFLLDKPTFAEVADEFMDYIRGAELVIHNAAFDIGFMDYEFSLLKRDIPKTNTFCKVTDSLAVARKMFPGKRNSLDALCARYEIDNSKRTLHGALLDAQILAEVYLAMTGGQTSMAFAMEGETQQQQGEATIQRIVRQASKLRVVFATDEEIAAHEARLDLVQKKGGSCLWRA

Variants of: B1
Details: with dpo3b_ecoli dnaN

Q: How did the “effect of a mutation on the interaction” value turn out when A921L;M923L was run?
A: increasing interaction

Variants of: B2
Details: with dpo3b_ecoli dnaN

Q: For T183L;M185P;A186L;F187P, which “effect of a mutation on the interaction” value is on record?
A: increasing interaction

Variants of: B2
Details: with dpo3b_ecoli dnaN
Remark: another data set of the same source

Q: How did the “effect of a mutation on the interaction” value turn out when Q182A was run?
A: disrupting interaction
